Legend:
[1] = target: Human recombinant ALDH3A1 (Homo sapiens, UniProt P30838); assay: Reactivity of probes to recombinant ALDH3A1 (UPLC/MS/MS); settings: 10-100 nM ALDH, 10-80 μM compound, Tris buffer pH 7.5, 30 minutes at 37° C.; ◯/X not defined by a legend
ALDH1A1 = ALDH1A1 (Homo sapiens, UniProt P00352); assay: Kinetic characteristics (Michaelis-Menten Km, Kcat) with ALDH1A1; settings: five minutes at 37° C., Tris buffer pH 7.5
[2] = HPLC (LC/MS) retention time as measure of hydrophilicity / membrane permeability; settings: C18 column, 20% B 2.5 min, 20%-->100% B 5 min, 500 μL/min, neutral conditions, mean±SD of three tests

Protein sequences, listed by entry. Tags and fused reporters are not part of them.
UniProt P30838, whole entry: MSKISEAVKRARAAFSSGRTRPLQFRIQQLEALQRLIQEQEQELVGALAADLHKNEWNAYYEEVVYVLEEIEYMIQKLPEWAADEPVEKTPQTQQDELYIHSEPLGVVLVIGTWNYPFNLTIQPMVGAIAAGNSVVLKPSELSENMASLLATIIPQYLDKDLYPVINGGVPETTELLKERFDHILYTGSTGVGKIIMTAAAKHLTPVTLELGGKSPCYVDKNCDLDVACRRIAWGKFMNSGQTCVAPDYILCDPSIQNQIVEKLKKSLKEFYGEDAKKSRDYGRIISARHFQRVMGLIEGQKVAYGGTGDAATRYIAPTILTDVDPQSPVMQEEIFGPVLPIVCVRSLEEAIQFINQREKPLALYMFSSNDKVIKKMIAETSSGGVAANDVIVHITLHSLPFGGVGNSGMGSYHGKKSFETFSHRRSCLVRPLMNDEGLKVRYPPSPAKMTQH
UniProt P00352, whole entry: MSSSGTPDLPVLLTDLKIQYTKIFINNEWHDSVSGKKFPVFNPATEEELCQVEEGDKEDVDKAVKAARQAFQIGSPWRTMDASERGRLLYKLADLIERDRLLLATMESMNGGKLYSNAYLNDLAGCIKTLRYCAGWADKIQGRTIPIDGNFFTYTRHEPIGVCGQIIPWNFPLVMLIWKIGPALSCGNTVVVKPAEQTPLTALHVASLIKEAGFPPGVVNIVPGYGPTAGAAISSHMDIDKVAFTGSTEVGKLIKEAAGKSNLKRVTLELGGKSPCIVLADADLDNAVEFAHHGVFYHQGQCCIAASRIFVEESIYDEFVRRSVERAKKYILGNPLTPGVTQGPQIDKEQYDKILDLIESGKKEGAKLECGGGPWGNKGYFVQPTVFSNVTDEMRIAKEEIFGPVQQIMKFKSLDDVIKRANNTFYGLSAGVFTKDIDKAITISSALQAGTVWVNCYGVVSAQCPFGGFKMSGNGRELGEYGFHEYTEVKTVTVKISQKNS

Reactivity to ALDH3A1 [1]: showed no reactivity to ALDH3A1 | Kcat ALDH1A1 (ALDH1A1): 7.75 ± 6.28 s⁻¹ | Km (ALDH1A1; read-out: Km ALDH1A1): 161 µM | Retention Time, Aldehyde form [2]: in the lower 7 minutes | Retention Time, carboxylate (carboxylic acid form) [2]: 6.741 min | Retention Time, Aldehyde form ([2]; listed as ALDELFLUOR ®): 7.283 ± 0.003 min | Retention Time, carboxylate (carboxylic acid form) ([2]; listed as ALDELFLUOR ®): 6.741 ± 0.001 min
SMILES: CC1=CC(C)=[N+]2C1=Cc1ccc(CCC(=O)NCC=O)n1[B-]2(F)F

— US20200207989A1, “FLUORESCENT PROBE FOR ALDH3A1 DETECTION” (The University of Tokyo, priority 2016, published 2020)
